In experiment [1] the test system is E. granulosus PSCs.
Experiment [2] has as its system E. granulosus PSCs. Put plainly: microbe, parasite or virus in culture. As to conditions: Echinococcus granulosus, 72 h.
Setting [3] is: second-stage dose-response, 2 μM, PSCs.
Where [4] appears, read: second-stage dose-response, 10 μM, PSCs.

Where two headings read alike, the source gives them in different places.

Take `CC(=O)[C@]1(O)Cc2c(O)c3c(c(O)c2[C@@H](O[C@H]2C[C@H](N)[C@H](O)[C@H](C)O2)C1)C(=O)c1ccccc1C3=O` [Idarubicin]: the “Anti-echinicoccus activity, Dose confirmaiton 2uM” value in the experiment with E. granulosus PSCs [1] (setting [3]) was found to be 0. The “Anti-echinicoccus activity, Dose confirmaiton 10uM” value with E. granulosus PSCs [1] (setting [4]) was 0. For the same compound, the killing at 50 µM was found to be 100% in the experiment with E. granulosus PSCs [2] (read-out: Anti-echinicoccus activity, Dose confirmaiton 50uM, second-stage dose-response, 50 μM, PSCs) and 100% in the experiment with E. granulosus PSCs [2] (read-out: Anti-echinicoccus activity, Initiate hits 50uM, primary screen, 50 μM, PSCs, 3-day incubation, PI staining (death rate of PSCs)).

As for `Cl.O=C(NC1CCNCC1)c1[nH]ncc1NC(=O)c1c(Cl)cccc1Cl` [AT7519 HCl], the “Anti-echinicoccus activity, Initiate hits 50uM” value in the experiment on E. granulosus PSCs [1] (primary screen, 50 μM, PSCs, 3-day incubation, PI staining (death rate of PSCs)) turned out to be 98. The “Anti-echinicoccus activity, Dose confirmaiton 0.5uM” value in the experiment on E. granulosus PSCs [1] (second-stage dose-response, 0.5 μM, PSCs) came to 0. In the experiment on E. granulosus PSCs [1] (setting [3]), the “Anti-echinicoccus activity, Dose confirmaiton 2uM” value stood at 0. Further, the “Anti-echinicoccus activity, Dose confirmaiton 10uM” value in the experiment with E. granulosus PSCs [1] (setting [4]) turned out to be 0. The “Anti-echinicoccus activity, Dose confirmaiton 50uM” value in the experiment with E. granulosus PSCs [1] (second-stage dose-response, 50 μM, PSCs) was 100.

For the compound `CN1CCCN(C(=O)c2cccc(-c3ccc(/C=C4/C(=O)Nc5ccc(Cl)cc54)o3)c2)CC1.Cl` [CX-6258 HCl], in the experiment on E. granulosus PSCs [1], the “Anti-echinicoccus activity, Dose confirmaiton 0.5uM” value amounted to 0; the “Anti-echinicoccus activity, Dose confirmaiton 2uM” value came to 0; the “Anti-echinicoccus activity, Dose confirmaiton 10uM” value amounted to 0; the “Anti-echinicoccus activity, Dose confirmaiton 50uM” value stood at 100. Besides, in the experiment on E. granulosus PSCs [1], the “Anti-echinicoccus activity, Initiate hits 50uM” value is listed as 100.
